The term Ki denotes a dissociation constant, usually derived from enzyme kinetics or from competition with a known ligand. Low values mean tighter binding, high ones weaker binding.

Protein sequences, listed by entry. Tags and fused reporters are not part of them.
UniProt P50406, whole entry: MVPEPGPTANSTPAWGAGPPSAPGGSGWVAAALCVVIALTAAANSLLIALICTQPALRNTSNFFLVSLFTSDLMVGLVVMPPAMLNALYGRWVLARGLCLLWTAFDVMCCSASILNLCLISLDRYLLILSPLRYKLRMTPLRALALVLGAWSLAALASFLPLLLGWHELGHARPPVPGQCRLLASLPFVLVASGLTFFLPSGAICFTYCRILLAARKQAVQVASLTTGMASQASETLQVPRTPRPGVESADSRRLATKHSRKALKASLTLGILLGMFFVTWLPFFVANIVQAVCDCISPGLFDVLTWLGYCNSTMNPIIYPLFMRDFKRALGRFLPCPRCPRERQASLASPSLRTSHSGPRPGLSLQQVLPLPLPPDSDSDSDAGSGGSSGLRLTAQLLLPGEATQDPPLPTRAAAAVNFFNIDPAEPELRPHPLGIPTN

We go through four compounds from US20060148818A1, “Novel tetraydrospiro(piperdine-2,7'- pyrrolo{3,2-b}pyridine derivatives and novel in-dole derivatives useful in the treatment of 5-ht6 receptor-related disorders” (priority 2003, published 2006).

For the assay, the target named is human 5-HT6 receptor (Homo sapiens, UniProt P50406). Put plainly: biochemical.

Each structure is given as a SMILES string. Counter-ions that a name gives are not always drawn.

In turn, `O=C(CNCCO)Nc1cccc2c1ccn2S(=O)(=O)c1ccccc1` [Example 5, N-(1-Benzenesulfonyl-1H-indol-4-yl)-2-(2-hydroxy-ethylamino)-acetamide] registered an inhibition constant Ki of 0.23 µM.

`Cc1ccc(S(=O)(=O)n2ccc3c4c(ccc32)CCC(N)C4)cc1` (stereo not shown) [Example 8, 3-[(4-Methylphenyl)sulfonyl]-6,7,8,9-tetrahydro-3H-benzo[e]indol-8-amine trifluoroacetate] had a Ki of 0.094 µM.

In turn, `O=S(=O)(Nn1ccc2c(N3CCNCC3)cccc21)c1ccccc1` [Example 7, N-(4-piperazin-1-yl-1H-indol-1-yl)benzenesulfonamide hydrochloride] came in with an inhibitory constant (Ki) of 0.184 µM.

`O=S(=O)(c1ccccc1)n1ccc2c(Nc3ccncc3)cccc21` [Example 6] gave a Ki of 0.356 µM.
